pIC50: −log10 of the molar value.
Target: T1, Glutaminase kidney isoform, mitochondrial [63-669] (Homo sapiens, UniProt O94925)
T1 sequence (O94925 whole entry): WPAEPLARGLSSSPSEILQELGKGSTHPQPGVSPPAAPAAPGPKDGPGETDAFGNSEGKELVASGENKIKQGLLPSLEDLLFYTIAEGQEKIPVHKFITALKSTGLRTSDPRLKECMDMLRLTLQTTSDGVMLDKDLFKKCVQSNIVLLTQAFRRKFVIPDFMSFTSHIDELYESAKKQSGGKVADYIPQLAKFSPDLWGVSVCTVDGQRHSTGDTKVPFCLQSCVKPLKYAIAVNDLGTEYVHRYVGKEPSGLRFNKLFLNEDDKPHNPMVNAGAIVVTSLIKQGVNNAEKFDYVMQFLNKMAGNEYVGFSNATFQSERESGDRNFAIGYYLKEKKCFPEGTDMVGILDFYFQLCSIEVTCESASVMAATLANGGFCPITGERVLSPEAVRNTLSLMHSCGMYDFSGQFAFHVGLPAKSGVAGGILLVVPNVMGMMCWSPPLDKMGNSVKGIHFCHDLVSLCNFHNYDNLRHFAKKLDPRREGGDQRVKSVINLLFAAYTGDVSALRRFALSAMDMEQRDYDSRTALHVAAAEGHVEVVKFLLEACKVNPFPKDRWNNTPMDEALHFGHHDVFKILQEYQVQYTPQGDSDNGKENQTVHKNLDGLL
Assay: GLS Enzyme Potency Assay
Protocol: A Glutamate Oxidase/AmplexRed coupled assay was used to measure the ability of compounds to bind to and inhibit the activity of GLS1 in vitro. […] GLS1 was diluted to 2× working concentration and incubated at room temperature to allow the tetrameric/dimeric forms to reach steady state. Assay measurements were performed in buffer comprising 50 mM TRIS pH 7.8, 100 mM NaPO4, pH 7.8, 0.001% v/v Tween20. […] DMSO concentration was maintained at 2% by back filling with DMSO solution. […] 3 μL of 100 mM glutamine diluted in assay buffer was then added and the reaction incubated at room temperature for 60 minutes. […] An artefact version of the assay where the 6His tagged GLS protein and glutamine were replaced with assay buffer was also used to rule out non specific effects on the assay components.

Row | Structure (SMILES) | pIC50
1 | CO[C@H](C(=O)Nc1nnc(N[C@@H]2CCN(c3cccnn3)C2)s1)c1ccc(F)c(OC(F)(F)F)c1 [US10981904, Example 20(b)] | 7.19
2 | CCO[C@H](C(=O)Nc1nnc(N[C@@H]2CCN(c3cccnn3)C2)s1)c1cccc(OC(F)(F)F)c1 [US10981904, Example 19(b)] | 7.02
